Measurements taken from PubChem BioAssay AID651796 (The Scripps Research Institute Molecular Screening Center, 2012).
Calls of active or inactive are those of the source. The rule behind the calls is not given here.

The chains behind the UniProt entries cited, without tags or fusion partners. Where a name states a change or a piece, a line headed by the entry shows the natural chain unless it says otherwise.
UniProt Q15788: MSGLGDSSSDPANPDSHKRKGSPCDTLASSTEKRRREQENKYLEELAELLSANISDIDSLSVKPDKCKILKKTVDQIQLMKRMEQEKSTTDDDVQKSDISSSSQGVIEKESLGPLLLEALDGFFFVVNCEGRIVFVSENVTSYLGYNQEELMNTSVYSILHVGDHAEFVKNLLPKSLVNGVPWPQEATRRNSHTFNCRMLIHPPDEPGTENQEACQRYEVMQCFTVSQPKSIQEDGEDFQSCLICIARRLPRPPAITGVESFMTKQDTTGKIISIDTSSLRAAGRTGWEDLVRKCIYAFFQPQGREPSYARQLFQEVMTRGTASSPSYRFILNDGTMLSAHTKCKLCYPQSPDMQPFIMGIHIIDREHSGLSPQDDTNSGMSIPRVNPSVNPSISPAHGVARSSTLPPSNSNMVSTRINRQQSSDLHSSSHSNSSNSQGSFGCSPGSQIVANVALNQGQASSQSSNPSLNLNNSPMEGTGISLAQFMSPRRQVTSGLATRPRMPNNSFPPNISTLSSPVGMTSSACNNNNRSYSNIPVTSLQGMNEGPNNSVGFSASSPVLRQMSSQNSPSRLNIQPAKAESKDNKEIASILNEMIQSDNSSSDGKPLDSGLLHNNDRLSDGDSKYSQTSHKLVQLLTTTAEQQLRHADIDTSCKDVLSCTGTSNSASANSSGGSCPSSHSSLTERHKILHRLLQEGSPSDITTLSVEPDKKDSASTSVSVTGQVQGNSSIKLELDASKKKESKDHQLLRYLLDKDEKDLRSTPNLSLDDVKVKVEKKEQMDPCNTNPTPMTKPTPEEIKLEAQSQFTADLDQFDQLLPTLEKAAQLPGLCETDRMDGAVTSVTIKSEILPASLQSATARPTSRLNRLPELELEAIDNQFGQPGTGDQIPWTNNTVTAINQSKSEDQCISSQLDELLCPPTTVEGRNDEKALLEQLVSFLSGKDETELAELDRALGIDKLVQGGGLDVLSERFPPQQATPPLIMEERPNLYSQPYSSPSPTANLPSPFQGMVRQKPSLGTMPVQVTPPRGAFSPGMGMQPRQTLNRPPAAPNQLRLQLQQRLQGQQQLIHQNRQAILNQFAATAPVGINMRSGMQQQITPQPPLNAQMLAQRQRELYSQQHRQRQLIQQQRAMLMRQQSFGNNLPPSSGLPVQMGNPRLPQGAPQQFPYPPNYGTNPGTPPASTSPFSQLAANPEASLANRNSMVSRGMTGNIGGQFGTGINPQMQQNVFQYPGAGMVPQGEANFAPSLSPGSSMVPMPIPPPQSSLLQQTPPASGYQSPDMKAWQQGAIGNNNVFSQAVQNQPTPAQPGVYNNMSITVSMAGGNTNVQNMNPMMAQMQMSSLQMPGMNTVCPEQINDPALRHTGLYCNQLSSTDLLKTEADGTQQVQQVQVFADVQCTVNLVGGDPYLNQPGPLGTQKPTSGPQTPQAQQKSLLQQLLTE

Molecular target: Nuclear receptor coactivator 1 (Homo sapiens) (UniProt Q15788)
Assay: SRC1 (NCOA1) coactivator inhibitors, late-stage follow-up, cell-based, luminescence (AID 651796)
Settings: cell-based SRC1 reporter

IC50: inactive
Compound: COc1cc([C@@H]2c3cc4c(cc3C(OC3OC5COC(C)OC5C(O)C3O)C3COC(=O)[C@@H]32)OCO4)cc(OC)c1O (stereo partly specified)
